From BindingDB's records for patent US9499482 (Bristol-Myers Squibb Co., 2016)

Sequences of proteins named here, by UniProt entry; tags and fusion partners are left off. A line that says so, or that is headed by a name, gives the form on record, which may keep a tag or linker. Residues count along the entry.
UniProt Q99705, 1-353 with tags or gaps A5T/E4Q: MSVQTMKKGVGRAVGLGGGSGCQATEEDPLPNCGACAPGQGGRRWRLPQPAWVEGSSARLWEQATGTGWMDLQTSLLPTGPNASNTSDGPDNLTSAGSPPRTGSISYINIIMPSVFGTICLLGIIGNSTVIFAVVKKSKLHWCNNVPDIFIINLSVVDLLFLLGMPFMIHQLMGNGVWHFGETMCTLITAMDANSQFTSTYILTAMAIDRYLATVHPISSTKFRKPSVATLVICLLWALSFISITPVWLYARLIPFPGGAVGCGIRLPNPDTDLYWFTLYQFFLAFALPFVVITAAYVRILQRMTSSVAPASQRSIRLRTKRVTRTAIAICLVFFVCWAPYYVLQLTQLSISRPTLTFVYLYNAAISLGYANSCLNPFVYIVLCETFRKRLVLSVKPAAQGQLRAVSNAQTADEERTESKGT

What follows are compounds tested against Melanin-concentrating hormone receptor 1 [E4Q,A5T] (Human, UniProt Q99705, A5T/E4Q) (assay: Radioligand Binding Assay). Conditions: pH 7.4.
Protocol: An in vitro binding assay was used to determine the compound Ki value or ability to antagonize binding of a peptide agonist to the human melanin concentrating hormone receptor (MCHR1). Membranes from stably transfected HEK-293 cells expressing a mutated (E4Q, A5T) hMCHR1 receptor were prepared by dounce homogenization and differential centrifugation. […] Inhibitory constants were determined by nonlinear least squares analysis using a four parameter logistic equation.

SMILES	Ki [nM]
COc1cc(N2CC[C@H](Oc3ccc(C4CC4)cc3)C2=O)ccc1OCCN[C@H]1CC[C@H](O)CC1 [US9499482, 26]	5
O=C1[C@@H](Oc2ccc(C3CC3)cc2)CCN1c1ccc(OCCN2CCCC2)c(Cl)c1 [US9499482, 92]	0.75
O=C1[C@H](Oc2ccc(C3CC3)cc2)CCN1c1ccc(OCCN2CCCC2)c(Cl)c1 [US9499482, 93]	28
COc1cc(N2CCC(Oc3ccc(C4CC4)cc3)C2=O)ccc1OCCN1CC(O)(C2CC2)C1 (stereo unspecified) [US9499482, 157]	0.4

More lines, in order of falling Ki, values ahead:

Ki [nM]	SMILES
7	CCc1cc(N2CC[C@H](Oc3ccc(C4CC4)cc3)C2=O)ccc1OCCN1CCNC(=O)C1 [US9499482, 52]
0.4	O=C1C(Oc2ccc(C3CC3)cc2)=CCN1c1ccc2c(cnn2CCN2CCCC2)c1 [US9499482, 252]
